From ChEMBL document CHEMBL2086345, “Metabotropic glutamate receptor 5 negative allosteric modulators as novel tools for in vivo investigation” (ACS Med Chem Lett, 2012) come the findings set out here.

Amino acid sequences for entries named in this document (tags omitted).
UniProt P31424, whole entry: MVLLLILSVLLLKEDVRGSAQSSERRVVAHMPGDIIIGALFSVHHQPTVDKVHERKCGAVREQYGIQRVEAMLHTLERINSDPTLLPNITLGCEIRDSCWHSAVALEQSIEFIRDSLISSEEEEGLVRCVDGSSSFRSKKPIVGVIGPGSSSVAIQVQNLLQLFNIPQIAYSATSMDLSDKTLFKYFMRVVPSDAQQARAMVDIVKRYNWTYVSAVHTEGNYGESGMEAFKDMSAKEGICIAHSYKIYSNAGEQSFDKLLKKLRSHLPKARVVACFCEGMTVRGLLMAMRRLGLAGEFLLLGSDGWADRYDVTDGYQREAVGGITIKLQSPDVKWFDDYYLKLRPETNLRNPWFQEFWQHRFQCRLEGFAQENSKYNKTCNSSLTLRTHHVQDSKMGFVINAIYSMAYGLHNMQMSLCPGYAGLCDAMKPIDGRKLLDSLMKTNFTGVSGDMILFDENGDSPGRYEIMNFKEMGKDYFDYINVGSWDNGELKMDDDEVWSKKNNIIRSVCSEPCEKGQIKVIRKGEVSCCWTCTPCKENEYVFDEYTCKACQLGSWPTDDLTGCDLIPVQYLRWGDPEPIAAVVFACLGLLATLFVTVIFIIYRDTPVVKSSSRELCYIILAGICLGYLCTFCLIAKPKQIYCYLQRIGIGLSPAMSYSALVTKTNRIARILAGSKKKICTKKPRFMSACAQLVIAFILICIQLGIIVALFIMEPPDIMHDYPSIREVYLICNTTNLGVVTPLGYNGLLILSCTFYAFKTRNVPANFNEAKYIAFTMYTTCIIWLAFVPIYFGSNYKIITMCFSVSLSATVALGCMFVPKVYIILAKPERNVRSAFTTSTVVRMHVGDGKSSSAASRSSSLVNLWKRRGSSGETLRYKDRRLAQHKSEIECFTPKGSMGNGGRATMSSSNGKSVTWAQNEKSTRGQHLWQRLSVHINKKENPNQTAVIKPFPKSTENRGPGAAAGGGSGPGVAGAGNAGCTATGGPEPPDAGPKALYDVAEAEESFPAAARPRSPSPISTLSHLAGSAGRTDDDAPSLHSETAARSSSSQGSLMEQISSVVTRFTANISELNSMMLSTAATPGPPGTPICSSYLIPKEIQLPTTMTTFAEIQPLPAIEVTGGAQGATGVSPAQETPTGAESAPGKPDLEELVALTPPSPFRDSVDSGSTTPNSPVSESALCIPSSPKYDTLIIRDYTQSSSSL

The target in experiment [1] is T1, Metabotropic glutamate receptor 5 (Rattus norvegicus, UniProt P31424). Briefly: Displacement of [3H]MPEP from mGluR5 in Sprague-Dawley rat brain membrane after 60 mins by liquid scintillation counting. The class given is cell membranes. The method, boiled down: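 Competitive binding against [³H]MPEP in membranes prepared from rat brain. Ki was derived from competitive inhibition of radioligand binding.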
On the technique in general: Displacement assays read how much labelled ligand stays bound in the presence of the test substance.

Experiment [2] addresses T1, Metabotropic glutamate receptor 5. The experiment in a line: Inverse agonist activity at rat mGluR5 expressed in HEK293A cells coexpressing Gqalpha assessed as inhibition of basal D-myo-inositol 1 production by ELISA.

With `Cc1nc(C#Cc2cccnc2)cs1`, the Ki in experiment [1] was 42 nM. In addition, the IC50 in experiment [2] was determined as 110 nM.
For `Cc1cccc(C#Cc2ccccc2)n1`, in that order: 16.3 nM and 31 nM.

What is called Ki is a measure of affinity in units of concentration, obtained from inhibition or displacement. As a reminder, the IC50 is the concentration at which inhibition is half-maximal.
